Structures are written as SMILES. Only a part is listed here, and it is no random draw. Records with an inconclusive call do not appear. Active and inactive are the calls of the source.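 Rule for the calls: active = Flux at 10 µM at least 3 SD below or above vehicle control mean in one or both replicates; inconclusive = no clear call, values can overlap the other calls; inactive = the rest.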

The chains behind the UniProt entries cited, without tags or fusion partners.
UniProt P48048, whole entry: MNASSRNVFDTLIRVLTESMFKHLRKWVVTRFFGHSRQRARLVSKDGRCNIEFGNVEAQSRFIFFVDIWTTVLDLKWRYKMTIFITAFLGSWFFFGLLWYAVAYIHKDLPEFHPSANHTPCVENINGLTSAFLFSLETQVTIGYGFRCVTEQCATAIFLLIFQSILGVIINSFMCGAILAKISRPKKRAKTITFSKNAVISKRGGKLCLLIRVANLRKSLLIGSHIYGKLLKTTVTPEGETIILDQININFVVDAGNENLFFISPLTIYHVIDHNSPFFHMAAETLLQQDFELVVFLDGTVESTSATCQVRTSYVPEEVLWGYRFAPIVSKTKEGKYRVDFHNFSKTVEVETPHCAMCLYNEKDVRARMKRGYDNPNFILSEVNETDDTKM

In the assay the target is ATP-sensitive inward rectifier potassium channel 1 (Homo sapiens) (UniProt P48048). In words: retested modulators of human Kir1.1 channel – cell-based, thallium flux, duplicate, resupplied hits, confirmation (AID 1917). Conditions: ROMK thallium flux, fluorescence ratio; at 10 µM; active compounds read low.
As to `O=[N+]([O-])c1ccc2c(c1)C=Nc1ccccc1O2`, the normalized thallium flux (F/F0 slope) was active: 0.0529.

The values above are taken from PubChem BioAssay AID1917 (Vanderbilt High Throughput Screening Facility, 2009).
